CycPeptMPDB entries from one study

Collected by the curators of CycPeptMPDB (Li et al. 2023) from Townsend et al. 2020, doi:10.26434/chemrxiv.13335941.v1.

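The data file gives no further conditions (lipid, pH, time, direction or concentration), and values from different papers need not be comparable. The list need not hold all peptides of the study. Entries at the database's floor value (log10 P of -10) are not listed.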

PAMPA measures passive passage through an artificial lipid membrane.
Permeability is in 10^-6 cm/s, converted from the database's log10 values; higher is more permeable.

| SMILES | PAMPA (10^-6 cm/s) |
|---|---|
| CCCN1CC(=O)N[C@H](CC(C)C)C(=O)N[C@H](CC(C)C)C(=O)N2CCC[C@H]2C(=O)N(C)[C@H](CC(C)C)C(=O)N[C@@H](Cc2ccccc2)C(=O)N2CCC[C@@H]2C1=O | 1.1 |
| CC(C)C[C@@H]1NC(=O)[C@@H](CC(C)C)NC(=O)[C@H](C)N(C)C(=O)[C@H]2CCCN2C(=O)[C@H](Cc2ccccc2)NC(=O)[C@@H](CC(C)C)N(C)C(=O)[C@H]2CCCN2C1=O | 6.6 |
| CC(C)C[C@@H]1NC(=O)[C@H](C)N(C)C(=O)[C@H]2CCCN2C(=O)[C@H](Cc2ccccc2)NC(=O)[C@@H](CC(C)C)N(C)C(=O)[C@@H]2CCCN2C(=O)C[C@H](Cc2ccccc2)NC1=O | 2.5 |
| CCCN1CC(=O)N[C@@H](CC(C)C)C(=O)N(C)[C@H](CC(C)C)C(=O)N2CCC[C@@H]2C(=O)N(C)[C@H](CC(C)C)C(=O)N[C@@H](Cc2ccccc2)C(=O)N2CCC[C@H]2C1=O | 0.98 |
| CC(C)C[C@@H]1NC(=O)C[C@H](Cc2ccccc2)NC(=O)[C@H](Cc2ccccc2)NC(=O)CN(Cc2ccccc2)C(=O)[C@H]2CCCN2C(=O)[C@@H](CC(C)C)NC1=O | 3.8 |
| CC(C)C[C@@H]1NC(=O)[C@@H](C)NC(=O)[C@H]2CCCN2C(=O)[C@H](Cc2ccccc2)NC(=O)[C@@H](CC(C)C)N(C)C(=O)[C@H]2CCCN2C(=O)CN(Cc2ccccc2)C1=O | 1.7 |
| CC(C)C[C@@H]1C(=O)N(Cc2ccccc2)CC(=O)N2CCC[C@H]2C(=O)N[C@H](CC(C)C)C(=O)N[C@@H](Cc2ccccc2)C(=O)N(C)[C@H](C)C(=O)N1C | 0.6 |
| CC(C)C[C@H]1NC(=O)[C@H](C)NC(=O)[C@H](Cc2ccccc2)NC(=O)[C@H](CC(C)C)N(C)C(=O)[C@H]2CCCN2C(=O)CN(Cc2ccccc2)C1=O | 1.7 |
| CCCN1CC(=O)N(C)[C@H](CC(C)C)C(=O)N(Cc2ccccc2)CC(=O)N2CCC[C@H]2C(=O)N(C)[C@@H](CC(C)C)C(=O)N[C@@H](Cc2ccccc2)C(=O)N2CCC[C@H]2C1=O | 5 |
| CC(C)C[C@@H]1NC(=O)[C@@H](C)NC(=O)[C@H](Cc2ccccc2)NC(=O)[C@H](CC(C)C)N(C)C(=O)[C@@H]2CCCN2C(=O)[C@@H](CC(C)C)N(C)C1=O | 1.7 |
| CC(C)C[C@@H]1NC(=O)C[C@H](Cc2ccccc2)NC(=O)[C@H]2CCCN2C(=O)[C@H](Cc2ccccc2)NC(=O)[C@H](CC(C)C)NC(=O)[C@H]2CCCN2C(=O)[C@@H](CC(C)C)NC1=O | 0.28 |
| CCCN1CC(=O)N[C@@H](CC(C)C)C(=O)N[C@@H](Cc2ccccc2)CC(=O)N2CCC[C@H]2C(=O)N(C)[C@@H](CC(C)C)C(=O)N[C@@H](Cc2ccccc2)C(=O)N2CCC[C@@H]2C1=O | 5.5 |
| CC(C)C[C@@H]1NC(=O)[C@H](C)N(C)C(=O)[C@H]2CCCN2C(=O)[C@H](Cc2ccccc2)NC(=O)[C@H](CC(C)C)N(C)C(=O)[C@H]2CCCN2C(=O)[C@@H](CC(C)C)N(C)C1=O | 2.1 |
| CC(C)C[C@@H]1NC(=O)[C@H](C)N(C)C(=O)[C@@H]2CCCN2C(=O)[C@H](Cc2ccccc2)NC(=O)[C@H](CC(C)C)N(C)C(=O)[C@H]2CCCN2C(=O)[C@@H](CC(C)C)N(C)C1=O | 0.79 |
| CCCN1CC(=O)N[C@H](CC(C)C)C(=O)N(C)[C@@H](CC(C)C)C(=O)N2CCC[C@@H]2C(=O)N[C@H](CC(C)C)C(=O)N[C@@H](Cc2ccccc2)C1=O | 9.5 |
| CC(C)C[C@H]1NC(=O)[C@H](C)NC(=O)[C@H]2CCCN2C(=O)[C@H](Cc2ccccc2)NC(=O)[C@@H](CC(C)C)NC(=O)[C@H]2CCCN2C(=O)[C@@H](CC(C)C)NC1=O | 0.17 |
| CC(C)C[C@@H]1NC(=O)[C@@H](C)N(C)C(=O)[C@H]2CCCN2C(=O)[C@H](Cc2ccccc2)NC(=O)CN(Cc2ccccc2)C(=O)[C@@H]2CCCN2C(=O)C[C@H](Cc2ccccc2)NC1=O | 2.1 |
| CCCN1CC(=O)N(C)[C@@H](CC(C)C)C(=O)N(Cc2ccccc2)CC(=O)N2CCC[C@@H]2C(=O)N(C)[C@@H](CC(C)C)C(=O)N[C@@H](Cc2ccccc2)C1=O | 7.1 |

Excerpt, the final 3 entries:

| SMILES | PAMPA (10^-6 cm/s) |
|---|---|
| CC(C)C[C@H]1NC(=O)[C@H](C)NC(=O)[C@H]2CCCN2C(=O)[C@H](Cc2ccccc2)NC(=O)[C@@H](CC(C)C)NC(=O)[C@H]2CCCN2C(=O)[C@@H](CC(C)C)NC1=O | 0.17 |
| CC(C)C[C@@H]1NC(=O)[C@@H](C)N(C)C(=O)[C@H]2CCCN2C(=O)[C@H](Cc2ccccc2)NC(=O)CN(Cc2ccccc2)C(=O)[C@@H]2CCCN2C(=O)C[C@H](Cc2ccccc2)NC1=O | 2.1 |
| CCCN1CC(=O)N(C)[C@@H](CC(C)C)C(=O)N(Cc2ccccc2)CC(=O)N2CCC[C@@H]2C(=O)N(C)[C@@H](CC(C)C)C(=O)N[C@@H](Cc2ccccc2)C1=O | 7.1 |